Tested on: Aspergillus niger-ATCC 9642, Penicillium funiculosum-ATCC 11797, Chaetomium globosum-ATCC 6205, Trichoderma virens-ATCC 9645, Aureobasidium pullulans-ATCC 15233
Assay: ASTM G21 strengthened (fungal growth on specimen, 28 days)
Assay type: cell-based, mold fungi (composite spore suspension)
Conditions: memory foam A1; 0.3 pbw (B) with 0.5 pbw (C) dimethyltetradecyl(3-(trimethoxysilyl)propyl)ammonium chloride; (E) Diglyme 0.7 pbw

## C1CN1
  G21 (ASTM G21 strengthened rating): 4 (at least 60% of the surface is covered with mold fungi)

Source: patent publication US20230128969A1, “POLYURETHANE FOAM COMPOSITIONS WITH ANTIMICROBIAL PROPERTIES” (SANITIZED AG, priority 2020, published 2023)
